Common to all, as to format: cell-based
Assay [1] concerns von Hippel-Lindau disease tumor suppressor/Epidermal growth factor receptor (Homo sapiens), P00533+P40337 [UNDEFINED MUTATION]. Put plainly: Protac activity at VHL/EGFR exon 19 deletion mutant in human HCC827 cells assessed as induction of EGFR degradation at 10 nM treated 8 hrs post serum starvation measured after 16 hrs by Western blot analysis.
The test system is the same in assay [2]. Description: Protac activity at VHL/EGFR exon 19 deletion mutant in human HCC827 cells assessed as induction of EGFR degradation treated 8 hrs post serum starvation measured after 16 hrs by Western blot analysis. On the technique in general: Immunoblotting shows a protein as a band on a membrane.
For assay [3], the system named is von Hippel-Lindau disease tumor suppressor/Epidermal growth factor receptor (Homo sapiens), P00533+P40337 [L858R]. Put plainly: Protac activity at VHL/EGFR L858R mutant in human H3255 cells assessed as induction of EGFR degradation treated 8 hrs post serum starvation measured after 16 hrs by Western blot analysis.
The test system is the same in assay [4]. Put plainly: Protac activity at VHL/EGFR L858R mutant in human H3255 cells assessed as induction of EGFR degradation at >=50 nM treated 8 hrs post serum starvation measured after 16 hrs by Western blot analysis relative to control.
Assay [5] concerns von Hippel-Lindau disease tumor suppressor/Epidermal growth factor receptor (Homo sapiens), P00533+P40337 [UNDEFINED MUTATION]. Description: Protac activity at VHL/EGFR exon 19 deletion mutant in human HCC827 cells assessed as induction of EGFR degradation at 10 uM treated 8 hrs post serum starvation measured after 16 hrs by Western blot analysis.
For assay [6], the system named is von Hippel-Lindau disease tumor suppressor/Epidermal growth factor receptor (Homo sapiens), P00533+P40337 [L858R]. Put plainly: Protac activity at VHL/EGFR L858R mutant in human H3255 cells assessed as induction of EGFR degradation at 10 uM treated 8 hrs post serum starvation measured after 16 hrs by Western blot analysis.
For assay [7], the system named is von Hippel-Lindau disease tumor suppressor/Epidermal growth factor receptor (Homo sapiens), P00533+P40337 [UNDEFINED MUTATION]. Description: Protac activity at VHL/EGFR exon 19 deletion mutant in human HCC827 cells assessed as reduction in AKT phosphorylation at 100 nM treated 8 hrs post serum starvation measured after 4 hrs by Western blot analysis.
For assay [8] the test system is unchanged. Put plainly: Protac activity at VHL/EGFR exon 19 deletion mutant in human HCC827 cells assessed as induction of EGFR degradation at 100 nM treated 8 hrs post serum starvation measured after 4 hrs by Western blot analysis relative to control.
Assay [9] has the same test system. Put plainly: Protac activity at VHL/EGFR exon 19 deletion mutant in human HCC827 cells assessed as induction of EGFR degradation at 100 nM treated 8 hrs post serum starvation measured after 12 to 24 hrs by Western blot analysis relative to control.
For assay [10] the test system is unchanged. Put plainly: Protac activity at VHL/EGFR exon 19 deletion mutant in human HCC827 cells assessed as induction of EGFR degradation at 0.1 to 1 uM incubated for 8 hrs in absence of FBS by Western blot analysis.
The test system of assay [11] is von Hippel-Lindau disease tumor suppressor/Epidermal growth factor receptor (Homo sapiens), P00533+P40337 [L858R]. Description: Protac activity at VHL/EGFR L858R mutant in human H3255 cells assessed as induction of EGFR degradation at 0.1 to 1 uM incubated for 8 hrs in absence of FBS by Western blot analysis.
For assay [12] the test system is unchanged. Put plainly: Protac activity at VHL/EGFR L858R mutant in human H3255 cells assessed as induction of EGFR degradation at 100 nM measured after 8 hrs in presence of neddylation inhibitor MLN4924 by Western blot analysis.
Assay [13] shares this test system. Put plainly: Protac activity at VHL/EGFR L858R mutant in human H3255 cells assessed as induction of EGFR degradation at 100 nM measured after 8 hrs in presence of VHL inhibitor VH-298 by Western blot analysis.
Assay [14] shares this test system. Description: Protac activity at VHL/EGFR L858R mutant in human H3255 cells assessed as induction of EGFR degradation at 100 nM measured after 8 hrs in presence of negative control MS39N by Western blot analysis.
The test system is the same in assay [15]. Description: Protac activity at VHL/EGFR L858R mutant in human H3255 cells assessed as induction of EGFR degradation at 100 nM measured after 8 hrs in presence of EGFR inhibitor gefitinib by Western blot analysis.
The test system of assay [16] is von Hippel-Lindau disease tumor suppressor/Epidermal growth factor receptor (Homo sapiens), P00533+P40337 [UNDEFINED MUTATION]. Description: Reversible protac activity at VHL/EGFR exon 19 deletion mutant in human HCC827 cells assessed as recovery of EGFR degradation at 100 nM preincubated for 12 hrs followed by compound washout and measured after 24 hrs by Western blot analysis.

By UniProt entry, the sequences of proteins in these tests, tags left out.
von Hippel-Lindau disease tumor suppressor/Epidermal growth factor receptor (Homo sapiens), P00533+P40337, UniProt P40337, whole entry, looked up, stated change not applied: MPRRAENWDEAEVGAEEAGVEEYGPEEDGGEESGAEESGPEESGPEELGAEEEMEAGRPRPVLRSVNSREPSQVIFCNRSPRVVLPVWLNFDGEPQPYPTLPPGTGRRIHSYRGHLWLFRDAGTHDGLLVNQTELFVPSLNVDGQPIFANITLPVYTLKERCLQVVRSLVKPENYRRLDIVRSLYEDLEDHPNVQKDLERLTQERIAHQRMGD

Assay [17] shares this test system. Description: Reversible protac activity at VHL/EGFR exon 19 deletion mutant in human HCC827 cells assessed as recovery of EGFR phosphorylation at 100 nM preincubated for 12 hrs followed by compound washout and measured after 24 hrs by Western blot analysis.
Assay [18] shares this test system. Description: Reversible protac activity at VHL/EGFR exon 19 deletion mutant in human HCC827 cells assessed as recovery of AKT phosphorylation at 100 nM preincubated for 12 hrs followed by compound washout and measured after 48 hrs by Western blot analysis.
The subject of assay [19] is von Hippel-Lindau disease tumor suppressor/Epidermal growth factor receptor (Homo sapiens), P00533+P40337 [L858R]. Description: Reversible protac activity at VHL/EGFR L858R mutant in human H3255 cells assessed as recovery of EGFR degradation at 100 nM preincubated for 12 hrs followed by compound washout and measured up to 48 hrs by Western blot analysis.
The test system is the same in assay [20]. Description: Reversible protac activity at VHL/EGFR L858R mutant in human H3255 cells assessed as recovery of EGFR phosphorylation at 100 nM preincubated for 12 hrs followed by compound washout and measured up to 48 hrs by Western blot analysis.
The test system of assay [21] is von Hippel-Lindau disease tumor suppressor/Epidermal growth factor receptor (Homo sapiens), P00533+P40337 [UNDEFINED MUTATION]. Put plainly: Protac activity at VHL/EGFR exon 19 deletion mutant in human HCC827 cells assessed as induction of EGFR degradation at 100 nM measured after 16 hrs by LC-MS analysis relative to control.

Activity calls are given as the source filed them. No cut-off for these calls is given here. Some results are limits rather than exact numbers.

With `COc1cc2ncnc(Nc3ccc(F)c(Cl)c3)c2cc1OCCCN1CCN(C(=O)CCCCCCCCCC(=O)N[C@H](C(=O)N2C[C@H](O)C[C@H]2C(=O)NCc2ccc(-c3scnc3C)cc2)C(C)(C)C)CC1`, the outcome in assay [1], in assay [6], in assay [7], in [10], in assay [11] and in [16] was Active. Also, the result in assay [17], in [18], in assay [19] and in assay [20] was Active. The Activity entry in assay [2] was “Dose-dependent effect”; in assay [3], “Dose-dependent effect”; in assay [8] it was 50%; in assay [9] it was 100%; in assay [21], greater than 75%. Further, in assay [4], the %max is greater than 95%. For the same compound, the outcome in assay [5], in assay [12], in assay [13], in [14] and in assay [15] was inactive.

The record behind these values is ChEMBL document CHEMBL4376874, “Discovery of Potent and Selective Epidermal Growth Factor Receptor (EGFR) Bifunctional Small-Molecule Degraders” (J Med Chem, 2020).
